Measurements from patent US10428080B2, “TBK/IKK inhibitor compounds and uses thereof” (Merck Patent GmbH, priority 2015, dated 2019).
Read-outs that look alike come from different tables or passages of the source.

By UniProt entry, the sequences of proteins in these tests, tags left out.
UniProt Q9UHD2, whole entry: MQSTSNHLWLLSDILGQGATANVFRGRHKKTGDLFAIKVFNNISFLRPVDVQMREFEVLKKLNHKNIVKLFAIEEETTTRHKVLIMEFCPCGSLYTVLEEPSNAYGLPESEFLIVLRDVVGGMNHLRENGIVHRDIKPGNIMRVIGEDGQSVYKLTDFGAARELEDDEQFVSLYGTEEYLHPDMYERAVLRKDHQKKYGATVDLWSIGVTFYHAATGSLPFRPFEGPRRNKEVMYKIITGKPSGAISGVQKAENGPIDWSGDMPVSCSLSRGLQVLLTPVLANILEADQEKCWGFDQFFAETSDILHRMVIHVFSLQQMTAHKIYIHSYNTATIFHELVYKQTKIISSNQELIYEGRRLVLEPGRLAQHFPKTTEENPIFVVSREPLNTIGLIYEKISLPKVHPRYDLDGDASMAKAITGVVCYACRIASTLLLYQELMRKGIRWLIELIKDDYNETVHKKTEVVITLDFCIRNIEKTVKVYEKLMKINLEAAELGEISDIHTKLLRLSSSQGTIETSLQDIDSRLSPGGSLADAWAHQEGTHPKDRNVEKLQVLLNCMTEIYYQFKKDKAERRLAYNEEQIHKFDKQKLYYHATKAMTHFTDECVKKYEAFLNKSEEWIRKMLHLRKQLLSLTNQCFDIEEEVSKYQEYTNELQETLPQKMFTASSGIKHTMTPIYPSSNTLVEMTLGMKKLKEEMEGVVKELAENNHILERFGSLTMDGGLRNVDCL
UniProt Q14164, whole entry: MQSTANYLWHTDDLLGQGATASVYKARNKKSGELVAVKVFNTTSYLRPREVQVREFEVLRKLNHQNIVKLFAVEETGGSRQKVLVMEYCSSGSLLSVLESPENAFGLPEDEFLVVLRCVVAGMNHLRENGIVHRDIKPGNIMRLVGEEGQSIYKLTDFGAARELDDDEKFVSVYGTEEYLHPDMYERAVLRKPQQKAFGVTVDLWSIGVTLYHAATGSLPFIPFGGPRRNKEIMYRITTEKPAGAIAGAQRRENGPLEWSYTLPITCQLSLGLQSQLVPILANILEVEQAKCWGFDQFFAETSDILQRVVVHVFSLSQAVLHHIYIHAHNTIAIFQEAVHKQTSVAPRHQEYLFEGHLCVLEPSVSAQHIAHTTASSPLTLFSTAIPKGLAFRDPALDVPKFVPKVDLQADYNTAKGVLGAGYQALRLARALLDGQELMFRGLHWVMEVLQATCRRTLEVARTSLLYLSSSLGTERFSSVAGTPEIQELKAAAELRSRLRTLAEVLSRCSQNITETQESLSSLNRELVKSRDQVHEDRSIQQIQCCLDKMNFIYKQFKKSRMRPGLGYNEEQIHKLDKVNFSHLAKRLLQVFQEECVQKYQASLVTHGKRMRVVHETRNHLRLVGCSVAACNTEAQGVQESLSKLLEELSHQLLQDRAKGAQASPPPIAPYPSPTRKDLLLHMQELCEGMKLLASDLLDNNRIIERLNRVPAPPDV

Columns and labels:
[1] = molecular target: TBK1 (Homo sapiens, UniProt Q9UHD2); experiment: TBK Biochemical Assay; conditions: read-out: TBK1 IC50
Method: Example 482: TBK Biochemical Assay
(§1) Test compounds were transferred into Labcyte polypropylene 384 well plates (P055-25) and diluted to 3 mM using DMSO. 3 mM test compounds were dispensed using Labcyte ECHO dose response module into Greiner 784075 plates (columns 3-12 and 13-22, 10 point 1:4) so that high concentration was 30 uM final. 100 uM of a reference compound (1 uM final high concentration). Backfilling was performed if necessary so that all wells contain 1% DMSO final: […]
(§2) add 75 nl DMSO/well into columns 1, 2 and 24 using Labcyte Echo. add 75 nl 1.0 mM staurosporine/well into column 23 using Labcyte Echo ([…]) add 4.5 ul enzyme/well using multidrop dispenser add 3 ul substrate/well using multidrop dispenser incubate at 25° C. in Heidolph incubator for 90 min. add 7.5 ul 2× stop buffer using multidrop dispenser read on labchip ez reader II using TBK1.job
(§3) Raw data files were opened in the Caliper LabChip Reviewer program (Version 3.0.265.0 SP2) and peak assignments were adjusted to reflect “substrate first” with the software's post-run analysis options. A spline-fit baseline was applied using the software's analysis algorithm.

[2] = molecular target: IKKε (Homo sapiens, UniProt Q14164); experiment: IKKe Biochemical Assay; conditions: read-out: IKKε IC50
Method: as §1, with “(Greiner” for “Greiner”
as §2, with “C.” for “C. in Heidolph incubator”, “buffer” for “buffer using multidrop dispenser”, “IKKε. job” for “TBK1.job”
as §3

[3] = test system: phosphorylation of the IRF-3 protein in MDA-MB-468 cells; experiment: pIRF3 immunocytochemistry cell based assay
Method: The purpose of the pIRF3 immunocytochemistry cell based assay was to identify small molecules which modulates TBK/IKKe kinase activity through on target substrate phosphorylation of the IRF-3 protein. On the first day of the experiment, MDA-MB-468 cells were plated in 384 well, black, clear-bottom, Poly D lysine coated plates at a density of 5000 cells/well in 45 ul of complete DMEM and allowed to adhere overnight. On the second day compounds were added to cells at a starting concentration of 10 uM with a serial dilution of 3-fold for a total of 10 points. The cells were incubated for 1 hr at 37° C. Cells were then stimulated with Poly(I:C) at a final concentration of 10 ug/ml, and were incubated for 2 hr at 37° C. Following the incubation, media was removed from the wells and the cells were fixed with 4% PFA for 15 min at RT. Cells were washed at least 3 times with PBS, and then permeabilized with ice-cold methanol for 10 min at RT. The washing step was repeated and the cells were then blocked using 10% goat serum/1% BSA, made up in PBS and allowed to incubate at RT for 1 hr. The cells were washed again and then treated with an anti-pIRF3 antibody at 4° C. overnight (1:250 dilution of Abcam ab76493 in PBS containing 1% BSA). On the third day the primary antibody was washed off and pIRF3 was detected by adding the secondary antibody conjugated to AlexaFluor488 (1:200 dilution of secondary antibody in PBS containing 1% BSA) for 1 hr at RT. Cells were washed and then counterstained with PI/RNase staining buffer for 15 min at RT and read on the Acumen Explorer laser scanning cytometer. The percentage of phosphorylation of the IRF-3 protein was calculated using the following algorithm, a modified version of the mean half width intensity (pIRF3 staining)/(PI staining or # of cells)×100%). IC50 curves were generated using the Genedata software.

[4] = read-out: pIRF3 IC50, Poly(I:C) stimulation

Compound	IC50 [1] [nM]	IC50 [2] [nM]	IC50 [3, 4] [nM]	IC50 ([1]; tested form: HCl) [nM]	IC50 ([2]; tested form: HCl) [nM]	IC50 ([3]; read-out: pIRF3 IC50, Poly(I:C) stimulation, tested form: HCl) [nM]
COc1cc(C(=O)N2CCCCN2)ncc1-c1cc2nccc(-c3ccc(OC4CCOCC4)c(C#N)c3)c2o1	< 100	< 100	100 to 1000	–	–	–
COc1cc(C(=O)NC2C3COCC32)ncc1-c1cc2nccc(-c3ccc(N4CCC(F)C4)c(C#N)c3)c2o1 (centres unmarked)	< 100	< 100	–	–	–	–
COc1cc(C(=O)N2CCCCC2)ncc1-c1cc2nccc(-c3ccc(OC4CCOCC4)c(C#N)c3)c2o1	–	–	–	< 100	< 100	100 to 1000
COc1cc(C(=O)N(C)CCO)cnc1-c1cc2nccc(-c3ccc(N4CC[C@@H](F)C4)c(C#N)c3)c2o1	< 100	< 100	100 to 1000	–	–	–
COc1cc(C(=O)N2CCCCC2)ncc1-c1cc2nccc(-c3ccc(OC4CCOCC4)c(C#N)n3)c2o1	< 100	< 100	< 100	–	–	–
